Measurements: patent US11236129B2, “IL-17A binding peptides and medical uses thereof” (Dompe' Farmaceutici S.P.A., priority 2018, dated 2022)

Experiments:
[1] = Isoelectric point, log D and log P (SiriusT3); assay type: physicochemical; settings: 25±1° C., 0.15 M KCl
Method: The main physicochemical properties (Isoelectric point (IP), log D (7.4) and log P) of the peptides of Table 8 below were determined by using the SiriusT3 apparatus (Sirius Analytical Instruments Ltd., East Sussex, UK) equipped with an Ag/AgCl double junction reference pH electrode, a Sirius D-PAS spectrometer and a turbidity sensing device. The pH electrode was calibrated titrimetrically in the pH range 1.8-12.2. An overhead stirrer was used and a temperature probe (Peltier controller) monitored the temperature during the course of the titration. The titration experiments were conducted in 0.15 M KCl Ionic Strength Adjusted solution (ISA water) under a nitrogen atmosphere at a temperature of 25±1° C. All tests were performed using standardized 0.5 M KOH and 0.5 M HCl as titration reagents, for the partition coefficient tests a saturated Octanol in ISA water (5% of ISA water) was used as partition solvent. The pKas were determined by potentiometric method by pH-metric titration. The powder (around 0.5 mg) was dissolved in 1.5 ml of ISA water and the titration was performed in triplicate in the pH range 2.0−12.0.

[2] = test system: Immortalized Human Corneal Epithelial cell line (I-HCEC); test: In vitro evaluation of expression of inflammatory cytokines in I-HCEC (real-time PCR); assay type: cell-based
Method: The peptide HAP (SEQ ID NO:1) and the peptide of SEQ ID NO:2 were tested in vitro for evaluation of their direct influence on expression of inflammatory cytokines in the cornea. The tests were conducted on Immortalized Human Corneal Epithelial cell line (I-HCEC) (Innoprot, Bizkaia, Spain, Ref. P10871). This is derived from Primary Human Corneal Epithelial Cells (>99% purity) and is suitable for studies of human cornea in health and disease. […] The cell medium was supplemented with 5% Fetal Bovine Serum (FBS). Cells were seeded at 320000 cells/well 6 plate and 15000 cells/well 96 plate. […] Total RNA was isolated from 6 wells plate using Quick-Start RNeasy Mini Kit (Qiagen, cat. No 74104) according to the manufacturer's instructions. Retro-transcription was performed using SuperScript Vilo (ref. 11755050, Life technologies) and real-time PCR using TaqMan protocol (ref. 4444557, Applied Biosystem) adapted for CFX96 Real-Time System. The experiments were performed three times, each time in duplicate. The used probes from Thermo Fisher Scientific are: human CXCL8 (Hs00174103_m1), human IL6 (Hs00174131_m1), human TNFα (Hs99999043_m1). As housekeeping gene was used GAPDH (probe Hs02758991_g1). […] Untreated I-HCEC were used as negative control (Vehicle).

With CC[C@H](C)[C@H](NC(C)=O)C(=O)N[C@@H](Cc1c[nH]cn1)C(=O)N[C@H](C(=O)N[C@H](C(=O)N[C@H](C(=O)N1CCC[C@H]1C(=O)N[C@@H](C)C(=O)N[C@@H](CC(=O)O)C(=O)N[C@@H](CC(C)C)C(=O)N[C@@H](Cc1c[nH]c2ccccc12)C(=O)N[C@@H](CC(=O)O)C(=O)N[C@@H](Cc1c[nH]c2ccccc12)C(=O)N[C@H](C(=O)N[C@@H](CC(N)=O)C(=O)N[C@@H](CCCCN)C(N)=O)[C@@H](C)CC)[C@@H](C)CC)[C@@H](C)O)C(C)C [SEQ ID NO: 1, reference compound] the “IP (isoelectric point)” value [1] was 5.14, the “increase of IL-6 expression” value [2] was 10 fold and the “increase of TNF-α expression” value [2] was 8 fold.
